Values quoted from earlier work as cited in patent US6562605B1, “Extraction of water soluble biomaterials from fluids using a carbon dioxide/surfactant mixture” (Genencor International, Inc., priority 1995, dated 2003).

Conditions: at 487 bar

Solubility in carbon dioxide: slightly soluble at 487 bar
Substance: Dimethyl dicoco ammonium chloride
